# Laboratory results reported in US6355608B1, “Detergent composition” (Shiseido Co., Ltd., priority 1998, dated 2002).
# Experiment: Measurement of the Krafft point (differential scanning calorimeter)
# Assay type: physicochemical
substance,measurement,setting,value
Triethanolamine hydroxylaurate,Physical state,at room temperature,liquid at room temperature
same,Krafft point (in words),compared with the salts of the invention,lower Krafft points
